Test results published in patent US10112932B2, “Benzoxazepin oxazolidinone compounds and methods of use” (Genentech, Inc., priority 2015, dated 2018).

Key:
[1] = tested on: SW48 (H1047R) PI3Kα mutant cells, P-PRAS40; assay: Inhibition of P-PRAS40 in SW48 isogenic cells, kinase domain mutant H1047R (Example 902); details: Homo sapiens, SW48, 24 h, read-out: P-PRAS40 SW48 (H1047R) EC50
[2] = tested on: CD69 expression in CD19+ CD27− B cells; assay: cells; details: Homo sapiens, B-cell, read-out: B-cell a-IgM CD69 expression IC50, plasma-protein-binding corrected
[3] = tested on: SW48 (parental) PI3Kα wild-type cells, P-PRAS40; assay: Inhibition of P-PRAS40 in SW48 isogenic cells, PI3Kα wild-type parental (Example 902); details: Homo sapiens, SW48, 24 h, read-out: P-PRAS40 SW48 (parental) EC50
[4] = tested on: SW48 (E545K) PI3Kα mutant cells, P-PRAS40; assay: Inhibition of P-PRAS40 in SW48 isogenic cells, helical domain mutant E545K (Example 902); details: Homo sapiens, SW48, 24 h, read-out: P-PRAS40 SW48 (E545K) EC50

- EC50 [1]: 32.1 nM
- IC50 [2]: 6 nM
- EC50 [4]: 28.4 nM
Structure (SMILES): CS(=O)(=O)N1CCN(Cc2cc3nc(-c4cccc5[nH]ncc45)nc(N4CCOCC4)c3s2)CC1 [pictilisib, 4-(2-(1H-indazol-4-yl)-6-((4-(methylsulfonyl)piperazin-1-yl)methyl)thieno[3,2-d]pyrimidin-4-yl)morpholine, reference compound]
- EC50 [3]: 31.5 nM
